Assay results published in US5084142A, “Separation of tertiary butyl alcohol from water by azeotropic or extractive distillation” (priority 1991, dated 1992).

Legend:
[1] = Extractive agents evaluated in vapor-liquid equilibrium still (separating water from t-butanol); assay type: physicochemical; conditions: extractive agent, water as overhead
[2] = Azeotropic agents evaluated in vapor-liquid equilibrium still (separating water from t-butanol); assay type: physicochemical; conditions: azeotropic agent, water as overhead

| Structure (SMILES) | Relative Volatility [1] | Relative Volatility [2] |
| --- | --- | --- |
| CCCCCOC(=O)CC [Amyl propionate] | 1.41 |  |
| CCC(O)CO (stereo not shown) [1,2-Butanediol] | 1.30 |  |
| CCCCCCCCCCCO [Undecyl alcohol] | 1.25 |  |
| CCOC(=O)c1ccccc1O [Ethyl salicylate] | 1.32 |  |
| CCCCCCCCCC(C)=O [2-Undecanone] | 1.33 |  |
| CCC(C)C(C)=O (stereo not shown) [3-Methyl-2-pentanone] |  | 1.55 |
| CCCCOCCO [Ethylene glycol butyl ether] | 1.21 |  |
